Data taken from patent US20250186496A1, “METHODS AND COMPOSITIONS FOR CONTROLLING T CELL ACTIVATION” (The General Hospital Corporation, priority 2022, published 2025).

System: CAR19 cells
Assay: Long-term expansion on weekly exposure to irradiated CD19+K562s with or without lenalidomide
Details: 1 μM lenalidomide; weekly 1:1 irradiated CD19+K562s

Structure (SMILES): Nc1cccc2c1CN(C1CCC(=O)NC1=O)C2=O (stereo not shown) [lenalidomide]
- effect of lenalidomide on expansion of CAR19 cells with mbdIL7: decreased expansion of CAR19 cells with mdbIL7 to the same level as CAR19 cells without mdbIL7
